## Binding of CDR-mutated scFvs to a peptide of the spike HR2 region

Source: Engelhart et al. 2022 (doi:10.1038/s41597-022-01779-4), MIT Lincoln Laboratory and A-Alpha Bio; data file from the FLAb repository.

Target peptide (SARS-CoV-2 spike, HR2 region): PDVDLGDISGINAS

The variants keep the light chain, the linker and the frameworks of Ab-91 (scFv order VL, three GGGGS repeats, VH).
VL: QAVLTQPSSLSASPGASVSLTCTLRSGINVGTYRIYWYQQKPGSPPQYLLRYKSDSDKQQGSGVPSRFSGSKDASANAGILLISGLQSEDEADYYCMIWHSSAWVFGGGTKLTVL
VH: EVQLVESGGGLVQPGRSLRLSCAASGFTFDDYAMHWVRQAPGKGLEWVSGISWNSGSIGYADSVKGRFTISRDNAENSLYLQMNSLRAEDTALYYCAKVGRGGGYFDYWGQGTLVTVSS

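The library (AAYL51) carries one to three amino acid substitutions per variant, with no insertions or deletions. The scFvs were displayed on barcoded MATa yeast, the peptide on MATalpha yeast. The frequency of each diploid, read from paired DNA barcodes, reflects how well the two displayed proteins bind. Scores were corrected for input abundance and mapped to Kd with protein pairs of known affinity run in the same pool. Each pool was mated in three replicate cultures.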

Each variant is given by its three heavy chain CDRs, as the data file delimits them; those of the parent are GFTFDDYAMH, GISWNSGSIGYADSVK, VGRGGGYFDY.
Values are log10 of the apparent Kd in nM; lower means stronger binding.
An entry "n.d." has no value in the source: the pair was not observed among the diploids in that replicate. This suggests poor binding but is not conclusive.
Empty control strains, which show no peptide, gave a signal in 21% of pairings with library AAYL51; the median was 4.54 and 95% of these signals were weaker than 3.26. No background was subtracted. The control count says in how many pairings with the empty strains this scFv gave a signal, with their mean in brackets.

| # | CDR-H1 | CDR-H2 | CDR-H3 | log10 Kd, replicates | control signals |
|---|---|---|---|---|---|
| 1 | GFTFDDAAMH | GISWAFGSIGYADSVK | VGRGGGYFDY | n.d. / n.d. / n.d. | 0/9 |
| 2 | GWTFKDYAMH | GILWNSGSIGYADSVK | VGRGGGYFDY | 3.45 / n.d. / n.d. | 3/9 (3.94) |
| 3 | GFTFDCSAMH | GTSWNSGSIGYADSVK | VGRGGGYFDY | n.d. / 3.37 / n.d. | 0/9 |
| 4 | GFTFDDYAMH | GISWNSGSIGYADFVK | VKRGGWYFDY | 4.62 / 4.96 / 4.92 | 7/9 (4.66) |
| 5 | GFTFDDYAMH | GISWNYGSIGYADSVT | VGRGGGYFDY | n.d. / n.d. / n.d. | 0/9 |
| 6 | GTTFDDYMMH | GISWLSGSIGYADSVK | VGRGGGYFDY | 3.67 / n.d. / n.d. | 0/9 |
| 7 | GFTFDDYAFH | GISVNSGSIGYADSVK | VGRGKGYFDY | n.d. / 6.00 / n.d. | 0/9 |
| 8 | GFTFDDYLMH | GISWNSGSIRYADSVK | VGRGGGEFDY | 4.77 / n.d. / n.d. | 1/9 (3.30) |
| 9 | GFTFDILAMH | GISWNSGSIGYADSVK | VSRGGGYFDY | n.d. / n.d. / 4.40 | 1/9 (2.92) |
| 10 | GFTFDDYAMH | GISWDSFSIGYADSWK | VGRGGGYFDY | 2.57 / 2.90 / 2.99 | 2/9 (3.10) |
| 11 | LFTFDDYAMH | GISWNSGSIGYADFVK | VGDGGGYFDY | 6.02 / 4.13 / n.d. | 2/9 (4.93) |
| 12 | SFNFDDYAMH | GISWNSGSIGYRDSVK | VGRGGGYFDY | n.d. / n.d. / n.d. | 0/9 |
| 13 | GFTTDDYHMG | GISWNSGSIGYADSVK | VGRGGGYFDY | n.d. / n.d. / n.d. | 1/9 (3.28) |
| 14 | YFTFDDYAMH | GISWNSGSTGYADSVK | VGRGGGKFDY | n.d. / n.d. / n.d. | 0/9 |
| 15 | GFTFDDYAMH | GISINSGSIGYADSVK | VLRGTGYFDY | 5.23 / n.d. / n.d. | 2/9 (3.63) |
| 16 | GFTFDDYAMH | GIRWNSGSIGYARPVK | VGRGGGYFDY | n.d. / n.d. / n.d. | 1/9 (5.17) |
| 17 | GFTYDDYAMH | GISHNSGSIGYADSVK | VGSGGGYFDY | 2.65 / 2.86 / 3.05 | 7/9 (5.06) |
| 18 | GFTFDDYAMH | QISWNSGSIGYWDSVK | VGRYGGYFDY | n.d. / n.d. / n.d. | 0/9 |
| 19 | GYTFDDYQMH | GISWNSGSIGYADSVK | VGRGYGYFDY | 3.23 / n.d. / n.d. | 3/9 (3.57) |
| 20 | GITFDDYAMH | GISWNSGSIGYADSVK | VGRGGGYADY | n.d. / 4.03 / n.d. | 3/9 (3.94) |
| 21 | GFTFDDWAMH | GWSWNSGSIGYADSVK | VGRGGGYFDY | 4.76 / n.d. / n.d. | 0/9 |
| 22 | GFTFDDYAMH | PISWNSGSIGYADSVK | VDRGGGYFDY | n.d. / n.d. / n.d. | 2/9 (4.27) |
| 23 | GFTFDDYAMK | GISWNSGSIGYADCVK | VGRGGGYFSY | n.d. / n.d. / n.d. | 0/9 |
| 24 | GFTCDDYAMH | GISWNSGSIGYADSVK | VGRGGGYPDY | n.d. / 6.13 / n.d. | 4/9 (4.29) |
| 25 | GFTNDDYAMH | GISWNSGSIGYAPSVK | VGRGGGYADY | n.d. / n.d. / n.d. | 3/9 (5.04) |
| 26 | GFTFDDYAMH | GISWNSLSIGYADSSK | VFRGGGYFDY | n.d. / n.d. / n.d. | 0/9 |
| 27 | GFTFDDYAMH | GISWVSGSIGYHDSVK | VGRGGGYFCY | n.d. / 4.23 / n.d. | 2/9 (4.19) |
| 28 | GFTFDDYAEH | GESWNSGSIGYKDSVK | VGRGGGYFDY | n.d. / 5.37 / 4.83 | 5/9 (4.85) |
| 29 | GFTFDDYAHH | VISWNSGSIGYADSVK | VYRGGGYFDY | 5.85 / n.d. / n.d. | 1/9 (4.84) |
| 30 | GFTFDDYAMH | GISWNSGSPGHADSVK | VGRNGGYFDY | n.d. / 4.44 / n.d. | 3/9 (4.30) |
| 31 | GFTFDDYAMH | IISWNKGSIGYADSVK | KGRGGGYFDY | n.d. / n.d. / n.d. | 0/9 |